This test has as its target Human αvβ3 (Homo sapiens, UniProt P05106+P06756). Briefly: In vitro solid phase purified αvβ3 binding assay (vitronectin/αvβ3). Conditions: read-out: Antagonist IC50 Activity αVβ3; inhibition of 2 nM vitronectin binding to immobilized αvβ3.

Chains of the proteins cited; added tags and fusions are not shown. Residues count along the entry.
UniProt P05106, 27-788 limits assumed: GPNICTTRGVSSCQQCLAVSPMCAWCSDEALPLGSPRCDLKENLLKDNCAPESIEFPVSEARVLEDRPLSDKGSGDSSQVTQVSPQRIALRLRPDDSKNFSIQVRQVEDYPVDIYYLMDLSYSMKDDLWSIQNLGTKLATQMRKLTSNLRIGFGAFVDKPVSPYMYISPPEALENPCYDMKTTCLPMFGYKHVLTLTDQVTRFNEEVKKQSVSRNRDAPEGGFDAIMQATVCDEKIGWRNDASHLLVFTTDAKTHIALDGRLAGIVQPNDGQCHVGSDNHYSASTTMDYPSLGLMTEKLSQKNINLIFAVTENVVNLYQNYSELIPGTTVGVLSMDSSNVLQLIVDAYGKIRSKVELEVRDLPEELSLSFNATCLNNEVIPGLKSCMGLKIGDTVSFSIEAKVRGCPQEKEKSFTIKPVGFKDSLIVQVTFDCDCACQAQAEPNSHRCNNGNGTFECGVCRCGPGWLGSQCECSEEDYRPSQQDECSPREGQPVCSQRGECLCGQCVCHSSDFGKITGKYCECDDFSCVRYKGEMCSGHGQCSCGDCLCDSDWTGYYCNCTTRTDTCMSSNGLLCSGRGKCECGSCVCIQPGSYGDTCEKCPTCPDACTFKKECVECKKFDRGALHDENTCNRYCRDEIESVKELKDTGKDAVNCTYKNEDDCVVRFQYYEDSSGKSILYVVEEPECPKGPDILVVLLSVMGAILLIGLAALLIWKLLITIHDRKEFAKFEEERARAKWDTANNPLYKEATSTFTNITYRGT
UniProt P06756, 31-889 limits assumed: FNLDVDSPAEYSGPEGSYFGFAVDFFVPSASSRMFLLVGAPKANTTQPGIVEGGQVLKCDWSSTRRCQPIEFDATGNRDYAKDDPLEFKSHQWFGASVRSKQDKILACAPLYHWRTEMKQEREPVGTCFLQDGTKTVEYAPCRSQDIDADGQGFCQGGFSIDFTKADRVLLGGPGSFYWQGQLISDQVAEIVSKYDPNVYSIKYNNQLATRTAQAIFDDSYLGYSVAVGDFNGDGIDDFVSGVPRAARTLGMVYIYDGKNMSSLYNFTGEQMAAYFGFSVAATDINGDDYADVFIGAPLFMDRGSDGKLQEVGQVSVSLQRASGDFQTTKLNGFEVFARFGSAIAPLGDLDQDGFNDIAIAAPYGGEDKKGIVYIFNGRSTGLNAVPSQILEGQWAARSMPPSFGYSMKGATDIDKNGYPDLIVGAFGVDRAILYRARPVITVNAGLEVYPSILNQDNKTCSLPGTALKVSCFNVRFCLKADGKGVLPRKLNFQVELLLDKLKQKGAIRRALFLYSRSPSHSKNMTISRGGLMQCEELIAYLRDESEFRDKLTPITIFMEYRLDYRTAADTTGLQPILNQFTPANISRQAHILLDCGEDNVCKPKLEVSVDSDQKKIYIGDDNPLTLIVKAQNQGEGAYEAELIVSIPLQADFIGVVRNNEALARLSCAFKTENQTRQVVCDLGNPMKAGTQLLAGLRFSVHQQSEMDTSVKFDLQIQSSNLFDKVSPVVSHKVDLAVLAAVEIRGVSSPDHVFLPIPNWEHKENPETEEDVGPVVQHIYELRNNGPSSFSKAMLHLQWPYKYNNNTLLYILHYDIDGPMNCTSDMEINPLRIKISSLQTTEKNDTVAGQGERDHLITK
UniProt P06756, 891-1048 partner limits assumed: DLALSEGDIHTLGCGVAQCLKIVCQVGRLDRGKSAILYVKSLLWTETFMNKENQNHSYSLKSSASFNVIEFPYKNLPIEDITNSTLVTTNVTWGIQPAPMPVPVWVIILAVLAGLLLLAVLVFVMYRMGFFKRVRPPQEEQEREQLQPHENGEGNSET

Turning to `O=C(O)CC1c2ccccc2C2CN(C(=O)Cc3cccc(NC4=NCC(O)CN4)c3)CCC12` (racemic), the IC50 (as a rule, the midpoint of a concentration-inhibition curve) is 371 nM.

For the origin of these results see US7351711B2, “Tricyclic indanyls as integrin inhibitors” (Janssen Pharmaceutical, N.V., priority 2003, dated 2008).
